Results: ChEMBL document CHEMBL1128362, “Structure-activity relationships of 9-alkyladenine and ribose-modified adenosine derivatives at rat A3 adenosine receptors” (J Med Chem, 1995)

By UniProt entry, the sequences of proteins in these tests, tags left out.
UniProt P30543, whole entry: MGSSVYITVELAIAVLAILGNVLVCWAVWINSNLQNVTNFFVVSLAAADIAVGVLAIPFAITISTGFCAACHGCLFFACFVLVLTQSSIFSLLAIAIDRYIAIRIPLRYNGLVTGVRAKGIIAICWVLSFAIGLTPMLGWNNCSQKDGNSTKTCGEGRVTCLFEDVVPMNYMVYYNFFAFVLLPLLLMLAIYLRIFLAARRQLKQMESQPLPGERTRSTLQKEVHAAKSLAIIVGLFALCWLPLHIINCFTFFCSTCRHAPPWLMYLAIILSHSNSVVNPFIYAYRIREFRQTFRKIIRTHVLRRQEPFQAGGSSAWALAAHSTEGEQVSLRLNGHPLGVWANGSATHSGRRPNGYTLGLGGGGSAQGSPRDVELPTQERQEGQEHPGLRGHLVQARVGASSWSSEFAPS
UniProt P28647, whole entry, looked up: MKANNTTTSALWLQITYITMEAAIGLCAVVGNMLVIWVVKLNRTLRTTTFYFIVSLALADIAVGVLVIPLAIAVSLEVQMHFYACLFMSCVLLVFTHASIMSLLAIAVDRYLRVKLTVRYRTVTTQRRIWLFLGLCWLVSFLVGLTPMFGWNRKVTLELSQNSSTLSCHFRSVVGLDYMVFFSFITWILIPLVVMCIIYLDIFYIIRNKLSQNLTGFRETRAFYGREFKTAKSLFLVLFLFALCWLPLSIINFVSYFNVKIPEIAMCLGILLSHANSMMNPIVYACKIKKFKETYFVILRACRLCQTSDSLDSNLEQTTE
UniProt P25099, whole entry, looked up: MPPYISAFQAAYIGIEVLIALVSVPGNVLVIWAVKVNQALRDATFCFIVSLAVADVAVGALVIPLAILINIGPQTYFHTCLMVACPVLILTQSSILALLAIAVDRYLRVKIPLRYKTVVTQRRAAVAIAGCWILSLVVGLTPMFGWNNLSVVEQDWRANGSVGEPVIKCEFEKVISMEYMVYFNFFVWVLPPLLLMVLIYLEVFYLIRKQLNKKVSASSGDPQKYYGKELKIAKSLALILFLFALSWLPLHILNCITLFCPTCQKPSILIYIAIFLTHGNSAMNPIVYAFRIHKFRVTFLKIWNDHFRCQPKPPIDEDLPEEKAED

What was measured:
[1] = target: Adenosine receptor A2a (Rattus norvegicus, UniProt P30543); experiment: Binding affinity against adenosine A2A receptor from rat brain.
Method in brief: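 Rat A1 receptors came from cerebral cortical membranes with [3H]R-PIA, and rat A2a receptors came from striatal membranes with [3H]CGS 21680. Membranes were pretreated with adenosine deaminase (2 U/mL) for 30 min at 37 °C. Nonspecific binding was defined by 2-chloroadenosine at 10 µM (A1) and 200 µM (A2a).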

[2] = target: Adenosine receptor A2a and A3 (Rattus norvegicus) (UniProt P30543+P28647); experiment: Ratio of the binding affinities against rat brain A2a and A3 receptors, KiA2a/KiA3.
[3] = target: Adenosine receptors; A1 & A3 (Rattus norvegicus) (UniProt P25099+P28647); experiment: Ratio of the binding affinities against rat brain A1 and A3 receptors, KiA1/KiA3.

SMILES | Ki [1] [µM] | Ratio [2] | Ratio [3]
Nc1nc(Cl)nc2c1ncn2[C@@H]1O[C@H](CO)[C@@H](O)[C@@H]1O | 90 | – | –
CNC(=O)[C@@H]1C[C@H](N)[C@H](n2cnc3c(NCc4cccc(I)c4)nc(Cl)nc32)O1 | – | > 50 | 2
